In assay [1] the target is AR protein (Homo sapiens, UniProt P10275, T878A). The assay is described as follows: Degradation of AR protein in LNCaP cells (Western blot). It counts as cell-based. To be noted: 8 h.
Assay [2] has as its target AR protein (Homo sapiens, UniProt P10275). The assay is described as follows: Degradation of AR protein in VCaP cells (Western blot). It counts as cell-based. To be noted: 8 h.

Sequences of proteins named here, by UniProt entry; tags and fusion partners are left off.
UniProt P10275, whole entry T878A: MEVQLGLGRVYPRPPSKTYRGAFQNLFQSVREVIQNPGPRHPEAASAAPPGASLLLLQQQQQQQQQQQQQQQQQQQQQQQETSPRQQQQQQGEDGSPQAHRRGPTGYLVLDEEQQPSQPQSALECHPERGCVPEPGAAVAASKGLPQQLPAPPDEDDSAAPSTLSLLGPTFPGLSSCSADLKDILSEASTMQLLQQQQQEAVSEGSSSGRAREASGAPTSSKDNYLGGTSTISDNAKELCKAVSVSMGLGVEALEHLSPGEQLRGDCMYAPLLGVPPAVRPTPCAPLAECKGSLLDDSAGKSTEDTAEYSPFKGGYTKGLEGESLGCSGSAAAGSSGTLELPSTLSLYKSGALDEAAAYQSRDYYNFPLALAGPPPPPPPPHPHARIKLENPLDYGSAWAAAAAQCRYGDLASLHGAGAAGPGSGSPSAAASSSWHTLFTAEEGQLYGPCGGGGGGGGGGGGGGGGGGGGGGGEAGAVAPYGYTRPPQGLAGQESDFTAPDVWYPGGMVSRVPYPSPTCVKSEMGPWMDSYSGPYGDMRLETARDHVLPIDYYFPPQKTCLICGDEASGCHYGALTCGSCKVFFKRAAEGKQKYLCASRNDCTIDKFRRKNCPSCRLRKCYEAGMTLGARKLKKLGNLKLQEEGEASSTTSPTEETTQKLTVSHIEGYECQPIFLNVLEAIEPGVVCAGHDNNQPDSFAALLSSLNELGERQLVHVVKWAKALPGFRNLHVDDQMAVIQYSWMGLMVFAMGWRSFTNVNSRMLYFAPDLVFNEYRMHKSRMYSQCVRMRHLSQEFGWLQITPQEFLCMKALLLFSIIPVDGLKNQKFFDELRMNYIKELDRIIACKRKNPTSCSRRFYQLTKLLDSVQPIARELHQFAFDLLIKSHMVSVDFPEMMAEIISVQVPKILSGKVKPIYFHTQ

The structures appear in SMILES notation.

Data on one compound can be found in patent US20260234157A1 (published 2026).

Take `N#Cc1ccc(O[C@H]2CC[C@H](NC(=O)c3ccc(N4CCC(N5CCC6(CCc7cc8c(cc7O6)C(=O)N(C6CCC(=O)NC6=O)C8=O)CC5)[C@H](F)C4)nn3)CC2)cc1Cl` (stereo partly shown) [Compound 24]: the inhibition at 0.01 µM is 40% in assay [1] (read-out: Degradation rates of the AR protein in LNCaP cells, 10 nM (%)) and 47% in assay [2] (read-out: Degradation rate of the AR protein in VCaP cells, 10 nM (%)). Besides, the inhibition at 0.1 µM is 50% in assay [1] (read-out: Degradation rates of the AR protein in LNCaP cells, 100 nM (%)) and 58% in assay [2] (read-out: Degradation rate of the AR protein in VCaP cells, 100 nM (%)).
